Source: BindingDB's records for doi:10.1124/jpet.302.1.328 (University of North Carolina at Chapel Hill, 2002)
Several values for one entry are separate records, joined by “and”; a condition that tells them apart may be missing. Equal entries are not always repeated.

Chains of the proteins cited; added tags and fusions are not shown.
UniProt P35367, whole entry: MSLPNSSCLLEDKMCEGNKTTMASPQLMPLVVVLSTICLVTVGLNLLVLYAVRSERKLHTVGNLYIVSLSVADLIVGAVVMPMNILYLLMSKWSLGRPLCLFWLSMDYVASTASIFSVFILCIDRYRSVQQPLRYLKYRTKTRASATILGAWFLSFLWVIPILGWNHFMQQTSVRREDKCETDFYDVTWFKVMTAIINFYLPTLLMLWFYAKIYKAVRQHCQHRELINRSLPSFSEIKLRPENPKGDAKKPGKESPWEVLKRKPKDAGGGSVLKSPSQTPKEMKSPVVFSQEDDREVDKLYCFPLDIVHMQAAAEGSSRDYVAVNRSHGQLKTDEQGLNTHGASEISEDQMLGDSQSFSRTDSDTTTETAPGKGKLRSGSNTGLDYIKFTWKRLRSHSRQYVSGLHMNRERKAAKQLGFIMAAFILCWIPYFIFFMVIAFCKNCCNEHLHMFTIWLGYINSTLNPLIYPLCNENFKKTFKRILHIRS

Biological target: Histamine H1 receptor (Homo sapiens, UniProt P35367)

SMILES: CN1CCN(C2=c3ccccc3=Nc3ccc(Cl)cc3N2)CC1 [6-chloro-10-(4-methylpiperazin-1-yl)-2,9-diazatricyclo[9.4.0.0^{3,8}]pentadeca-1,3(8),4,6,10,12,14-heptaene]
- Ki: 1.63 nM and 1.54 nM
